Results reported in PubChem BioAssay AID652088 (The Scripps Research Institute Molecular Screening Center, 2013).
Active and inactive are the calls of the source.

Assays:
Test in all cases: PubChem AID 652088
Conditions in all cases: pooled hepatic microsomes, five species, LC-MS/MS half-life, hits give high values
[1] = system: dog
[2] = system: human
[3] = system: monkey
[4] = system: mouse
[5] = system: rat

COC(=O)c1cc(Br)cnc1N1CCC(NC2CCCCC2)C(O)C1 (stereo not given)
half-life [1]: > 120 min
half-life [2]: > 120 min
half-life [3]: inactive: 13 min
half-life [4]: inactive: 5 min
half-life [5]: inactive: 20 min
